Measured values taken from patent publication US20240199647A1, “ANTI-VIRAL COMPOUNDS” (Aligos Therapeutics, Inc., priority 2022, published 2024).

System: A549-dual_ACE2_TMPRSS2 cells
Assay: Toxicity testing in A549-dual_ACE2_TMPRSS2 cells without virus (MTS)
Details: read-out: A549-dual_ACE2_TMPRSS2 (CC50), Table C, class symbols
Procedure: The A549-dual_ACE2_TMPRSS2 cells (InvivoGen Cat #a-49-cov2r) were propagated in the growth medium which was prepared by supplementing DMEM (gibco cat no 41965-039) with 10% v/v heat-inactivated FCS and 10 μg/mL blasticidin (InvivoGen ant-b1-05), 100 μg/mL hygromycin (InvivoGen ant-hg-1), 0.5 μg/mL puromycin (InvivoGen ant-pr-1) and 100 μg/mL zeocin (InvivoGen ant-zn-05) in a humidified 5% CO2 incubator at 37° C. The assay medium was prepared by supplementing DMEM (gibco cat no 41965-039) with 2% v/v heat-inactivated FCS.
For toxicity testing, the same experimental setup was used except that assay medium without virus was added to the cells and that an additional control of well without cells was added to the plate.
Table C indicates related EC50 and CC50 values for the tested compounds ‘A’ indicates an EC50 <100 nM, ‘B’ indicates an EC50 of ≥100 nM and <1000 nM, ‘C’ indicates an EC50 ≥1000 nM and <10000 nM. For CC50, the values are reported in micromolar (μM). ‘A’ indicates a CC50 ≥1000 nM. ‘B’ indicates a CC50 ≥100 nM and <1000 nM.

**Q.** With `CN(C(=O)[C@H](CC1CC1)NS(=O)(=O)C1CC1)[C@@H](CC1CC1)C(=O)N1C[C@@]2(C[C@H]1C#N)Oc1cc(F)cc(F)c1NC2=O` as the molecule, how does the CC50 read?
**A.** The CC50 was greater than 1000 nM.
